Source: patent publication US20100143992A1, “Process for Fermentive Preparation of Alcohols and Recovery of Product” (E. I du Pont de Nemours and Company, priority 2008, published 2010)

What was measured:
[1] = Extraction of ethanol from an aqueous solution by ionic liquid; format: physicochemical; conditions: 5 vol % ionic liquid
[2] = Extraction of isobutanol from an aqueous solution by ionic liquid; format: physicochemical; conditions: 5 vol % ionic liquid
[3] = percentage of alcohol remaining in control

In the case of “1-Ethyl-3-methylimidazolium levulinate [[EMIM] [Lev]]”, the “g/L ethanol left in solution” value ([1]; 3 mL aqueous solution, about 31 g/L ethanol, overnight equilibration, control 30.2) is reported as 28.9 g/L, the “mM Ethanol (in solution after extraction)” value ([1]; 3 mL aqueous solution, about 31 g/L ethanol, overnight equilibration, control 655) is reported as 628 mM and the “% EthOH Extracted” value [1, 3] is reported as 4.09%. The “g/L isobutanol left in solution” value ([2]; 3 mL aqueous solution, about 31 g/L isobutanol, overnight equilibration, control 32.3) was 30.8 g/L, the “mM isobutanol (in solution after extraction)” value ([2]; 3 mL aqueous solution, about 31 g/L isobutanol, overnight equilibration, control 436) was 415 mM and the “% isobutanol Extracted” value [2, 3] was 5.03%.
